Laboratory results from article PMC5996351.

Chains of the proteins cited; added tags and fusions are not shown.
UniProt P37288, whole entry: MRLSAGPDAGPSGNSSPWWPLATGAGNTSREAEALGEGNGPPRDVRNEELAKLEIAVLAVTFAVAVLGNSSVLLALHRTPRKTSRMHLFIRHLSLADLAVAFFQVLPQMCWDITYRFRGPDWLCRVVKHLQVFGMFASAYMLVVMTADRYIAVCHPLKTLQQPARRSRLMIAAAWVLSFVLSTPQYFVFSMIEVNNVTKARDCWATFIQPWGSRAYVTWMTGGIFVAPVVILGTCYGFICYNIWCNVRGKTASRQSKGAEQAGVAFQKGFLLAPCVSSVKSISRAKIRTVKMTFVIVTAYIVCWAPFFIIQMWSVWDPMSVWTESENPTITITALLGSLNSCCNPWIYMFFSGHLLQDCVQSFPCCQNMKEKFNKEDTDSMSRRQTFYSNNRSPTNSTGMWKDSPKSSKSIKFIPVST

Target: human V1a vasopressin receptor encapsulated in a SMILP (human) (UniProt P37288)
Assay: radioligand binding; [3H]AVP as tracer on SMI-solubilized membranes containing V1aR-SMILP from HEK 293T cells; non-specific binding defined by a saturating concentration (1 uM) of unlabelled AVP; three separate experiments in triplicate

[3H]vasopressin (peptide) gave a specific binding as percent of total binding of 42%.
